Values quoted from earlier work, collected in patent publication US10251838B2, “Stereospecific lipids for locoregional therapy with long-term circulating stimuli-sensitive nanocarrier systems” (THERMOSOME GmbH, priority 2013, dated 2019).
Where two headings read alike, the source gives them in different places.

Conditions: dog model, cited from earlier work

In the case of `CO[C@@]12[C@H](COC(N)=O)C3=C(C(=O)C(C)=C(N)C3=O)N1C[C@@H]1N[C@@H]12` [mitomycin C], the “cases with sufficiently high (cytotoxic) concentrations” value (lamina propria) is listed as 20% and the “cases with sufficiently high (cytotoxic) concentrations” value (tunica muscularis) is listed as “less than 20%”.
